Assay [1] concerns the target deoxyribose-phosphate aldolase (DeoC) (E. coli BL21 (DE3)). Briefly: SEC; 30 μg protein on Superdex 200 Increase 10/300 GL in PBS pH 7.4; MM from a standard curve of elution volumes.
Assay [2] shares this target. Briefly: SAXS; EMBL P12 beamline, 20 °C, four concentrations between about 10 and 90 μM; MM from I(0) and equilibrium fit with OLIGOMER on PDB structures.
Assay [3] has the same target. Briefly: native MS; online buffer exchange MS; proteins diluted in 50 mM HEPES, 50 mM NaCl pH 7.4 (FabG: 25 mM tricine, 50 mM NaCl pH 8.5), overnight at 4 °C, exchanged online to 200 mM ammonium acetate pH 6.8; range of concentrations 40-0.15 μM before dilution; DeoC: apparent affinity, dimer to monomers, fit of eqn (1).
Assay [4] has the same target. Briefly: mass photometry; protein stocks diluted in PBS pH 7.4 to nanomolar concentrations (~100 nM) immediately before measurement; detection threshold ~40 kDa.

pKd: −log10 of the molar value.

Experimental findings from publication PMC9555727, “Protein quaternary structures in solution are a mixture of multiple forms†” (Chemical Science, 2022) are described below.

As to “deoxyribose-phosphate aldolase (DeoC) (enzyme)”, the stoichiometry N in assay [1], in assay [2], in assay [3] and in assay [4] was 2 each time. In assay [3], the pKd is 5.66.
